These results are taken from PMC13083723 (Patterns, 2026).

Each structure is given as a SMILES string.

This experiment concerns A549-ACE2 cells. The class given is cell-based. The note with it: primary screen, concentration 10 (10 μM), 24 h, tamoxifen 10 μM = 100%.

`CCNC(=O)C[C@@H]1N=C(c2ccc(Cl)cc2)c2cc(OC)ccc2-n2c(C)nnc21` [I-BET-762, reference compound]: the result_KI is listed as 0.2993 percent effect.
